{"source": "ChEMBL document CHEMBL4715801", "about": "“Discovery of Mycobacterium tuberculosis InhA Inhibitors by Binding Sites Comparison and Ligands Prediction” (J Med Chem, 2016)", "assay": "Inhibition of Mycobacterium tuberculosis InhA assessed as effect on NADH oxidation incubated for 10 mins by spectrophotometry", "data": [{"smiles": "Cc1c(CN(C)C(=O)/C=C/c2cnc3c(c2)CCC(=O)N3)c2ccccc2n1C", "values": [{"measurement": "IC50", "value": 62, "unit": "µM"}]}]}
